Reference: patent publication US20070281909A1, “Creatine phosphate prodrugs, compositions and uses thereof” (XenoPort, Inc., priority 2006, published 2007)

By UniProt entry, the sequences of proteins in these tests, tags left out. Where a name states a change or a piece, a line headed by the entry shows the natural chain unless it says otherwise.
UniProt Q9Y289: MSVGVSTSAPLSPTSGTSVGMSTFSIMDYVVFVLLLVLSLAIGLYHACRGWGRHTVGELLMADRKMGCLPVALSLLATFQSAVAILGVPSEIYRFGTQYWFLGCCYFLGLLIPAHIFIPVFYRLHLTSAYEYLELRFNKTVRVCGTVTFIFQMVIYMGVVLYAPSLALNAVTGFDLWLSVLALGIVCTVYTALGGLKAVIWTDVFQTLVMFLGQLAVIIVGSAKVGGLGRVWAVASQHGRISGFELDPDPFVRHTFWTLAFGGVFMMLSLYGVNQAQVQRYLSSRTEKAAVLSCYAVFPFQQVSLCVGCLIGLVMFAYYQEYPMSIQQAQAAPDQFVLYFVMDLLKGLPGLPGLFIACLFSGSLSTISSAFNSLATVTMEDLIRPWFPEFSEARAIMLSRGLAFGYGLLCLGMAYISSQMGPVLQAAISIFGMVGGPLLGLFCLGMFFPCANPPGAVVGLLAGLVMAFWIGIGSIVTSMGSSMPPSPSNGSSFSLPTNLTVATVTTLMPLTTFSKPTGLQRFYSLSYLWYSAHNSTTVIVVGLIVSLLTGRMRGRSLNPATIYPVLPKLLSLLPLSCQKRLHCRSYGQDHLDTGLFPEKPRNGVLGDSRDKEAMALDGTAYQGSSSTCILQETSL

Columns and labels:
[1] = system: H9C2 cells; assay: Protection against 3-nitropropionic acid induced toxicity (ATP luminescence); format: cell-based, rat; details: incubated 2.5 hours with compound, then 3-NP for 20 hours; FIG. 11
[2] = Enzymatic stability / cleavage in Caco-2 homogenate S9; details: for Enzymatic Stability, Caco-2: Caco-2 S9 homogenate pH 7.4, 37° C.
[3] = Rat liver S9 stability
[4] = system: HEK293 cells; assay: Restoration of cellular energy homeostasis following sodium azide treatment; format: cell-based, human; details: azide 20 minutes, then compound or control media 20 minutes; FIG. 12
[5] = target: SMVT transporter (Homo sapiens, UniProt Q9Y289); assay: Uptake in HEK cells induced / not induced to express SMVT; details: FIG. 8; induced vs not induced cells
[6] = system: HEK cells expressing SMVT; assay: Effect of treatment on the creatine kinase system (intracellular creatine phosphate, ATP, creatine); format: cell-based, human; details: for Percent Increase in Intracellular Concentrations, ATP / Percent Increase in Intracellular Concentrations, Creatine / Percent Increase in Intracellular Concentrations, Creatine Phosphate: 100 μM, relative to buffer
[7] = Prodrug stability in rat plasma
[8] = Chemical stability in pH buffers; details: for Chemical Stability, pH 7.4 / Chemical Stability, pH 8.0: 0.1M Tris-HCl, 0.5M NaCl; for Chemical Stability, pH 2.0: 0.1M potassium phosphate, 0.5 M NaCl

## CN(CC(=O)O)C(=N)NP(=O)(OCOC(=O)CCCc1ccccc1)OCOC(=O)CCCc1ccccc1
[1]
  Protection against 3-NP toxicity (ATP luminescence): protects H9C2 cells against 3-NP toxicity

## [[[(Bis(butylcarbonyloxymethoxy)phosphoryl)amino](imino)methyl](methyl)amino]acetic acid
[2]; FIG. 7
  Enzymatic cleavage and release of creatine phosphate in Caco-2 S9 homogenates: first enzymatically cleaved to compound (15), and then cleaved to release creatine phosphate
[2]; Time 0 h
  Enzymatic Stability, Caco-2: 100.0
[2]; Time 0.5 h
  Enzymatic Stability, Caco-2: 7.3
[2]; Time 1 h
  Enzymatic Stability, Caco-2: 0.3
[2]; Time 3 h
  Enzymatic Stability, Caco-2: 0.1
[2]; Time 6 h
  Enzymatic Stability, Caco-2: 0.0
[3]; Time 0 h
  Enzymatic Stability, Rat Liver S9: 100.0
[3]; Time 0.5 h
  Enzymatic Stability, Rat Liver S9: 83.8
[3]; Time 1 h
  Enzymatic Stability, Rat Liver S9: 58.0
[3]; Time 3 h
  Enzymatic Stability, Rat Liver S9: 2.4
[3]; Time 6 h
  Enzymatic Stability, Rat Liver S9: 0.1
[4]
  Reversal of azide-induced ATP depletion: reverses azide-induced ATP depletion
[5]
  Transport across the plasma membrane of HEK cells via the SMVT transporter: is transported across the plasma membrane of HEK cells via the SMVT transporter
[6]; After 1 Hour
  Percent Increase in Intracellular Concentrations, ATP: 42%
  Percent Increase in Intracellular Concentrations, Creatine: 75%
  Percent Increase in Intracellular Concentrations, Creatine Phosphate: 65%
[6]; After 3 Hours
  Percent Increase in Intracellular Concentrations, ATP: 55%
  Percent Increase in Intracellular Concentrations, Creatine: 190%
  Percent Increase in Intracellular Concentrations, Creatine Phosphate: 130%
[6]; summary of Table 4 and Table 5
  Intracellular concentrations of creatine phosphate, ATP, and creatine compared to treatment with either creatine or creatine phosphate: an increase in intracellular concentrations of creatine phosphate, ATP, and creatine
[7]; Time 0 h
  Enzymatic Stability, Rat Plasma: 100.0
[7]; Time 0.5 h
  Enzymatic Stability, Rat Plasma: 53.0
[7]; Time 1 h
  Enzymatic Stability, Rat Plasma: 22.9
[7]; Time 3 h
  Enzymatic Stability, Rat Plasma: 0.4
[7]; Time 6 h
  Enzymatic Stability, Rat Plasma: 0.1
[8]; Time 0 h
  Chemical Stability, pH 7.4: 100.0
  Chemical Stability, pH 8.0: 100.0
  Chemical Stability, pH 2.0: 100.0
[8]; Time 0.5 h
  Chemical Stability, pH 7.4: 102.9
  Chemical Stability, pH 8.0: 99.8
  Chemical Stability, pH 2.0: 101.1
[8]; Time 1 h
  Chemical Stability, pH 7.4: 109.4
  Chemical Stability, pH 8.0: 106.1
  Chemical Stability, pH 2.0: 96.2
[8]; Time 3 h
  Chemical Stability, pH 7.4: 92.1
  Chemical Stability, pH 8.0: 84.8
  Chemical Stability, pH 2.0: 60.5
[8]; Time 6 h
  Chemical Stability, pH 7.4: 88.7
  Chemical Stability, pH 8.0: 62.0
  Chemical Stability, pH 2.0: 38.5
